Earlier results as cited in patent US10874724B2, “Enzymatic immunomodulation of solid tumors and uses thereof” (University of Houston System, priority 2015, dated 2020).

Amino acid sequences for entries named in this document (tags omitted).
UniProt P27487, whole entry, species assumed: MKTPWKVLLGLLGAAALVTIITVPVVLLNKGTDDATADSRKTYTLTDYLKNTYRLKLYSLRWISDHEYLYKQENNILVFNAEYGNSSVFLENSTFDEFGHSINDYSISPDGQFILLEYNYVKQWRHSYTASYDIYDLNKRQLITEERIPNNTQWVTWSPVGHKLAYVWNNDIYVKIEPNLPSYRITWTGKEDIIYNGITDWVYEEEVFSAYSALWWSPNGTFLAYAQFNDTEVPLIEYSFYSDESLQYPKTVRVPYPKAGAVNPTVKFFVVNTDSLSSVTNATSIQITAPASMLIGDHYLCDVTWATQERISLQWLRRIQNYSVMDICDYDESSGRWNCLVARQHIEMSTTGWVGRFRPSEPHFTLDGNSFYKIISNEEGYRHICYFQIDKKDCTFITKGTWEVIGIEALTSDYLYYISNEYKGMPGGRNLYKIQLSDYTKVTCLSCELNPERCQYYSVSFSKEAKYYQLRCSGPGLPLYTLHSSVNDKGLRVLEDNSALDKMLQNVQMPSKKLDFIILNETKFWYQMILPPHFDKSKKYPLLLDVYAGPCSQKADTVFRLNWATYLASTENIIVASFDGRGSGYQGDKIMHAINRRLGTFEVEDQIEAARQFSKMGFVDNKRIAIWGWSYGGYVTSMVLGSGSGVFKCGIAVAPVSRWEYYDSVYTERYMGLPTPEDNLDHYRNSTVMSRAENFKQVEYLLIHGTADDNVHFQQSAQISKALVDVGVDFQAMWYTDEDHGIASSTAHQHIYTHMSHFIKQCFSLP

B1: mADA: recombinant purified mouse adenosine deaminase (protein, UniProt P03958 2-352, looked up)
Adenosine deaminase: AQTPAFNKPKVELHVHLDGAIKPETILYFGKKRGIALPADTVEELRNIIGMDKPLSLPGFLAKFDYYMPVIAGCREAIKRIAYEFVEMKAKEGVVYVEVRYSPHLLANSKVDPMPWNQTEGDVTPDDVVDLVNQGLQEGEQAFGIKVRSILCCMRHQPSWSLEVLELCKKYNQKTVVAMDLAGDETIEGSSLFPGHVEAYEGAVKNGIHRTVHAGEVGSPEVVREAVDILKTERVGHGYHTIEDEALYNRLLKENMHFEVCPWSSYLTGAWDPKTTHAVVRFKNDKANYSLNTDDPLIFKSTLDTDYQMTKKDMGFTEEEFKRLNINAAKSSFLPEEEKKELLERLYREYQ
B2: ADA: Adenosine deaminase (EC 3.5.4.4), enzyme degrading Ado into inosine and ammonia (protein, UniProt P00813 2-363, looked up)
Adenosine deaminase: AQTPAFDKPKVELHVHLDGSIKPETILYYGRRRGIALPANTAEGLLNVIGMDKPLTLPDFLAKFDYYMPAIAGCREAIKRIAYEFVEMKAKEGVVYVEVRYSPHLLANSKVEPIPWNQAEGDLTPDEVVALVGQGLQEGERDFGVKARSILCCMRHQPNWSPKVVELCKKYQQQTVVAIDLAGDETIPGSSLLPGHVQAYQEAVKSGIHRTVHAGEVGSAEVVKEAVDILKTERLGHGYHTLEDQALYNRLRQENMHFEICPWSSYLTGAWKPDTEHAVIRLKNDQANYSLNTDDPLIFKSTLDTDYQMTKRDMGFTEEEFKRLNINAAKSSFLPEDEKRELLDLLYKAYGMPPSASAGQNL

Target: CD26 (Homo sapiens, UniProt P27487)
Conditions: independent of catalytic activity; cited from earlier work

Molecule	Binding to CD26
B1	does not bind
B2	nanomolar affinity
